Source: patent US7049289B1, “Labelled glutamine and lysine analogues” (Amersham PLC, priority 1998, dated 2006)

Legend:
[1] = biological target: T1, fibrin (in vitro human plasma clot) (Homo sapiens, UniProt P02671+P02675+P02679); assay: Incorporation into human plasma clots in vitro; type: biochemical
T1 construct: about 400 μl of human plasma containing the radiolabelled substrate; from tissue; host or cells: human plasma, clotted in vitro with added thrombin and calcium chloride
T1 sequence (P02671 20-644 isoform P02671-2 limits assumed): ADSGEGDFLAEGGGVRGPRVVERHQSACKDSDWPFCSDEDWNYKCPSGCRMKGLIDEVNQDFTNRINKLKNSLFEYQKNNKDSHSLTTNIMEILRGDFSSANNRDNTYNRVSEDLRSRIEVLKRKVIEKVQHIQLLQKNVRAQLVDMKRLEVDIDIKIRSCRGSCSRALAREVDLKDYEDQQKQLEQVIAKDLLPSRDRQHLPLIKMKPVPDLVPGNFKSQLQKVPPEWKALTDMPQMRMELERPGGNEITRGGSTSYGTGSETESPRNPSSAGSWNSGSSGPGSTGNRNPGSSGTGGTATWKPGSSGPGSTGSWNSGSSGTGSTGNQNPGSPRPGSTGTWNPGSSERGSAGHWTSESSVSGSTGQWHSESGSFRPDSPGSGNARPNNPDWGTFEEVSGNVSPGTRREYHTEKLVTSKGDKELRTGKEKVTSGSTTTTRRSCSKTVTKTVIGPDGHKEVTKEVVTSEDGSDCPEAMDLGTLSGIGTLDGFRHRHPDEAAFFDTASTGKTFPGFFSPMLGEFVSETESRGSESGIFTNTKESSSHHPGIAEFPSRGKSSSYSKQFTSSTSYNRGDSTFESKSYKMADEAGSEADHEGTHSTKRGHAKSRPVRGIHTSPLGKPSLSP
T1 sequence (P02675 45-491 limits assumed): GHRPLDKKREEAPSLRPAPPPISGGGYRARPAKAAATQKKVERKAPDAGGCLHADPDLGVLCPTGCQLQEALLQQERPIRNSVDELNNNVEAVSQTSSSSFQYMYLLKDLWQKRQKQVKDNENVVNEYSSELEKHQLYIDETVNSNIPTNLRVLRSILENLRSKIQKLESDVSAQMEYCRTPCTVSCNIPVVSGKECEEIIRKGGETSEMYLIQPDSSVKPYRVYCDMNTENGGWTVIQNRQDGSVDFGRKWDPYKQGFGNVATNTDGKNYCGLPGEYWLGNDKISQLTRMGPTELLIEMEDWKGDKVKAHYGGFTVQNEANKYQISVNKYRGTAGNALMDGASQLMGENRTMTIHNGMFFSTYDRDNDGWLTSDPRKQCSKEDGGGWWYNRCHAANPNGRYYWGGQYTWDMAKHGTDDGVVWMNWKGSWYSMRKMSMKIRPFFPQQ
T1 sequence (P02679 27-437 isoform P02679-2 limits assumed): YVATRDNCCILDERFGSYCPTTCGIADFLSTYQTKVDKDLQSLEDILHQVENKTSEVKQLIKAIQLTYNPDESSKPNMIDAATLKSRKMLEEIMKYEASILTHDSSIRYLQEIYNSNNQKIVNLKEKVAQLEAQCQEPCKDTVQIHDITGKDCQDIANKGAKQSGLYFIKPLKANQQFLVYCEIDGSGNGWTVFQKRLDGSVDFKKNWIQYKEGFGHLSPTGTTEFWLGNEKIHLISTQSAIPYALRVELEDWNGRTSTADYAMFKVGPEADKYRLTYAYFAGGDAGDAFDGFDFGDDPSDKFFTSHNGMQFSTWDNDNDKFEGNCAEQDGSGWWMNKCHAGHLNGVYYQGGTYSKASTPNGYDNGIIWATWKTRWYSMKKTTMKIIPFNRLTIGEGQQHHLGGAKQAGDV
Experimental: Incorporation of radiolabelled substrates into fibrin was investigated by induction of an in vitro human plasma clot in the following manner. To a siliconised 5 ml glass vial was added, (a) 800 μl of Tris(hydroxymethyl)aminomethane buffered saline pH 7.5 containing calcium chloride (50 mM Tris, 150 mM sodium chloride, 4 mM calcium chloride.), (b) about 40 μl of physiological salt solution containing 100 units of thrombin per ml, (c) about 400 μl of human plasma containing the radiolabelled substrate at a concentration of typically 10 kBq/ml. To aid induction of clot a roughened glass rod was added to the reaction vial. Control vials were prepared similarly but with the omission of thrombin and calcium chloride.
After incubation of the test solution at ambient laboratory temperature (ca. 20° C.) for 60 minutes the reaction was discontinued with the addition of about 400 μl of a cold solution of 33.5 mM ethylenediaminetetra-acetic acid disodium salt. Clots were separated from serum by vacuum filtration onto […] nitrocellulose filters (pre-soaked in 1.5% BSA/tris(hydroxymethyl)aminoethae buffered saline pH 7.5 containing 0.1% Tween 20) and washed with about 2×10 ml of tris(hydroxymethyl)aminomethane buffered saline pH 7.5 containing Tween 20 to a final concentration of 0.1% v/v. The proportion of total radioactivity was calculated by counting in suitable detection apparatus.
The fraction of radioactivity retained on the filter, after subtraction of the non-specific binding determined from the control, is a measure of incorporation into the filtered clots.

[2] = Incorporation into clots induced in a rat model (rat inferior vena cava model); type: in vivo, rat (Male Wistar); settings: for % id/g (clot) / Rel. Conc. (cpm/g of clot by dose/g animal): sacrificed after 60 min
Experimental: The rats (Male Wistar, 250–350 g) were anaesthetised with 15% urethane. After laparotomy, the vena cava was isolated and freed of surrounding fat tissue. […] The average weight of the clots formed in this model was around 27 mg, n=32, (5–50 mg range). The compounds were injected 5 min (fresh clot) and 60 min (aged clot) post-induction. After 60 min the animals were sacrificed and the clot removed, weighed and counted. Other tissues e.g. blood, lung, heart, were also dissected and counted. The uptake of tracer into the clot was determined as the relative concentration (cpm/g of clot by dose/g animal) and clot to background tissue.

[3] = Aged Clots: injected 60 min post-induction
[4] = Fresh Clots: injected 5 min post-induction

% specific uptake ([1]; % retained (with thrombin) - % retained (no thrombin)): 31.5%
% retained (no thrombin) ([1]; control without thrombin and calcium chloride (non-specific binding)): 1.6%
% retained (with thrombin) ([1]; human plasma clot, with thrombin, 60 minutes, ca. 20° C.): 33.1%
Substance: Ac-YEVHHQKLVFFG-Pn216 (N-acetyl; C-terminal Pn216 chelator, 99mTc) [^99mTc-Cmpd 49]
Clot/blood ([2]; Aged Clots): 4
Clot/heart ([2]; Aged Clots): 29
Clot/liver ([2]; Aged Clots): 19
Clot/lung ([2]; Aged Clots): 9
% id/g (clot) [2, 3]: 1.2 ± 0.5 % id/g
Rel. Conc. (cpm/g of clot by dose/g animal) [2, 3]: 3.9 ± 1.6
Clot/blood ([2]; Fresh Clots): 4
Clot/heart ([2]; Fresh Clots): 16
Clot/liver ([2]; Fresh Clots): 4
Clot/lung ([2]; Fresh Clots): 6
% id/g (clot) [2, 4]: 2.6 ± 1.1 % id/g
Rel. Conc. (cpm/g of clot by dose/g animal) [2, 4]: 8.5 ± 3.7
